Key:
[1] = molecular target: T1, GluN1+GluN2B (wildtype receptor complex) (Rattus norvegicus, UniProt P35439+Q00960); test: Luminescent Cytotoxicity Assay, GluN1+GluN2B expressing HEK293 cells in presence of MK-801; type: cell-based; details: combined expression of GluN1 and GluN2B in presence of MK-801, 48 h after transfection
T1 construct: the results obtained with full length GluN2A and GluN2B receptors can be reproduced; host or cells: HEK293

Chains of the proteins cited; added tags and fusions are not shown. Residues count along the entry.
UniProt Q00960, 27-1482: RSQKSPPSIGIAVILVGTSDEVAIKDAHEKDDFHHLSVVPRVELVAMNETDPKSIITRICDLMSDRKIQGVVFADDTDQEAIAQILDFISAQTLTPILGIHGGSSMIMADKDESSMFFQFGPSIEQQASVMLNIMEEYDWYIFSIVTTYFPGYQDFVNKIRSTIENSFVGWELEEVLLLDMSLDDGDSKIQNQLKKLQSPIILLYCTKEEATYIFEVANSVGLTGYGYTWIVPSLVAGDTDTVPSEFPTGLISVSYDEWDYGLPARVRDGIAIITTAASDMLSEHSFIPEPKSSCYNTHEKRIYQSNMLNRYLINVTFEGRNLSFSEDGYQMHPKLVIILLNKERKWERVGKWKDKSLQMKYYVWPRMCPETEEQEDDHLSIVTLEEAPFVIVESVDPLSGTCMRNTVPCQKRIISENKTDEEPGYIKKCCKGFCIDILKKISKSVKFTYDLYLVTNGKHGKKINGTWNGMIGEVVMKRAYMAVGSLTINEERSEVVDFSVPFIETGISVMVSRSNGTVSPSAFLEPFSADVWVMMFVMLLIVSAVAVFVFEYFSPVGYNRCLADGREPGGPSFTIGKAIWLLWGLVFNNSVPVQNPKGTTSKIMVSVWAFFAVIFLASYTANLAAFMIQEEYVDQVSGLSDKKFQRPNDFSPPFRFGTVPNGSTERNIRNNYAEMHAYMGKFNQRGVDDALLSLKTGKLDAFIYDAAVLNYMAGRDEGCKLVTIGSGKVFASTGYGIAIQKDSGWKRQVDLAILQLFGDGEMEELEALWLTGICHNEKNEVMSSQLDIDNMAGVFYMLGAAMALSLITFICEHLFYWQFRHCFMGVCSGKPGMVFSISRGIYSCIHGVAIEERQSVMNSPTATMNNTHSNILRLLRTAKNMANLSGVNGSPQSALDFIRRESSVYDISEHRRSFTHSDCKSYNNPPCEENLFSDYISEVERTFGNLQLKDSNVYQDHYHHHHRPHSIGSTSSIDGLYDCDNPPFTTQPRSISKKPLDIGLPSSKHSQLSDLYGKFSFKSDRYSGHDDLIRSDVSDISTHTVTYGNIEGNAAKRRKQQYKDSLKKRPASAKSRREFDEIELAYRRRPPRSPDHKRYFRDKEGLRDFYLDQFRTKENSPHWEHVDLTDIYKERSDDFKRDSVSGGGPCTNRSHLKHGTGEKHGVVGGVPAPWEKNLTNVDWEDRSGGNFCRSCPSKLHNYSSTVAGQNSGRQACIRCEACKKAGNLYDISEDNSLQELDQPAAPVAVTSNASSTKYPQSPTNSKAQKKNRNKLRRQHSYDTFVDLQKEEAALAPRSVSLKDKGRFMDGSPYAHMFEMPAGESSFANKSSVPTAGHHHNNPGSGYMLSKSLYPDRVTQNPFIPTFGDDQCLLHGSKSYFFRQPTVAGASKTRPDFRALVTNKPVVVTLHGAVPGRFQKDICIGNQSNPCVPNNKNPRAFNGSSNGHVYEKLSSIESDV
UniProt Q00959, 23-1464: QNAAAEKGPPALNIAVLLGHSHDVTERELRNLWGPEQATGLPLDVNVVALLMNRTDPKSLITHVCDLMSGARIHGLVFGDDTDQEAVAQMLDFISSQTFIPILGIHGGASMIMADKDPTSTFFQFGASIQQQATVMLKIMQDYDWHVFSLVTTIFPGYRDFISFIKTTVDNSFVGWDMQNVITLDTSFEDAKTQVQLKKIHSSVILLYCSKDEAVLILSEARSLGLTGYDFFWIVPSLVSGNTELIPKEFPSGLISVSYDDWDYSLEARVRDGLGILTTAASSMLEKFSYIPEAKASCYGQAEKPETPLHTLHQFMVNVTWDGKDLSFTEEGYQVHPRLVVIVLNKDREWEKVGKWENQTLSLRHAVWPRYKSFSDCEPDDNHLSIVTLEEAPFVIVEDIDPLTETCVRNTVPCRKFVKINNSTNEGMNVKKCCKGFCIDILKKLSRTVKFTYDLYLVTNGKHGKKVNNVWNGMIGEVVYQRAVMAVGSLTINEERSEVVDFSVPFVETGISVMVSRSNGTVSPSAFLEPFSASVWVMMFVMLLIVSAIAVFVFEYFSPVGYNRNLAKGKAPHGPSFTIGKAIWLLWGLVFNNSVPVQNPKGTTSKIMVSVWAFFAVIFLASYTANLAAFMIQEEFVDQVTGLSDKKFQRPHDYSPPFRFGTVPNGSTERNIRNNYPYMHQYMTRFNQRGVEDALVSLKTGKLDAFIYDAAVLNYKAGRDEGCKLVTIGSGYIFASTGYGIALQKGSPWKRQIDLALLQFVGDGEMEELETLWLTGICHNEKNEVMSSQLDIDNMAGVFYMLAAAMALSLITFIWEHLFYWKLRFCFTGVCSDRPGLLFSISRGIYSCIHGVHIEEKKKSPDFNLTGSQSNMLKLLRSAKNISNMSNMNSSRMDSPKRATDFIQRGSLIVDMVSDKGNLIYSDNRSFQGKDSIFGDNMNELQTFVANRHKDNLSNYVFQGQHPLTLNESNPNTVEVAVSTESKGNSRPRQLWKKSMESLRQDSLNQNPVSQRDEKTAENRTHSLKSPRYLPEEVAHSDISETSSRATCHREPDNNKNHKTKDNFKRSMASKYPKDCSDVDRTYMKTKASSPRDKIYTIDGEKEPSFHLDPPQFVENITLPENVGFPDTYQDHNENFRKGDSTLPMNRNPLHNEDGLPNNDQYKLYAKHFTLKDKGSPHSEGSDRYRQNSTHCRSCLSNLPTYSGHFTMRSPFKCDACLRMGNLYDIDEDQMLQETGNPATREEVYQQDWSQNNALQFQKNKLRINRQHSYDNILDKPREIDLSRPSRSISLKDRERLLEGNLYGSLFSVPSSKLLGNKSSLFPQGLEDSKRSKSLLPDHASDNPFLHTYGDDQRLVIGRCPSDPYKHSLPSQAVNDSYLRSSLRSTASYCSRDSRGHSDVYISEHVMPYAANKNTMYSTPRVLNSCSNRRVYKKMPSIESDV

[2] = molecular target: T2, GluN1+GluN2A (wildtype receptor complex) (Rattus norvegicus, UniProt P35439+Q00959); test: Luminescent Cytotoxicity Assay, GluN1+GluN2A expressing HEK293 cells in presence of MK-801; type: cell-based; details: combined expression of GluN1 and rat GluN2A in presence of MK-801, 48 h after transfection
T2 construct: the results obtained with full length GluN2A and GluN2B receptors can be reproduced; host or cells: HEK293

MK-801 maleate
cell death [1]: did also not induce cell death
cell death [2]: did not induce cell death
